Experimental findings from published antibiotic growth screens (doi:10.1038/s41589-023-01349-8) are described below.

The list shows a part of the results.

This experiment has as its system A. baumannii ATCC 17978. As to the kind of experiment: relative growth (fraction of control); higher = less inhibition. Particulars: 50 µM.
`Cc1cc(-c2ccccc2)oc2cc3ccccc3c1-2` registered a relative growth of 0.974.

`N#CC1(N[C@@H](Cc2ccccc2)c2ccccc2)CCCCCC1` registered a relative growth of 0.849. Next, `C=C(C)[C@@H]1CC[C@]2(C)CC[C@]3(C)[C@@H](CCC4[C@@]5(C)CC[C@H](O)C(C)(C)C5CC[C@]43C)C12` (some centres undefined): 0.961.

With `CC(=O)Oc1ccccc1C(=O)O`, the relative growth worked out at 1.01. `Cc1cccc(S(=O)(=O)N2C[C@H](O)COC[C@@H]3O[C@@H](CC(=O)NCCCN4CCOCC4)CC[C@H]32)c1` yielded a relative growth of 0.974. Next, `C[C@@H]1CN([C@H](C)CO)S(=O)(=O)c2ccc(-c3cccc(F)c3)cc2O[C@H]1CN(C)S(C)(=O)=O`: 1.04. The result for `O=c1cc(-c2ccccc2)oc2cc(O)ccc12` reads 1.06; that for `C/C=C1\[C@H](O[C@@H]2O[C@H](CO)[C@@H](O)[C@H](O)[C@H]2O)OC=C(C(=O)OC)[C@H]1CC(=O)OC`, 1.06; that for `N=C(N)NS(=O)(=O)c1ccc(N)cc1`, 0.891. Next, `CCCC#Cc1ccc2c(c1)O[C@@H](CN(C)C(=O)c1cnccn1)[C@@H](C)CN([C@@H](C)CO)S2(=O)=O`: 0.963; `O=c1[nH]c(=O)n([C@@H]2O[C@H](CO)[C@@H](O)[C@H]2O)cc1Br`: 1.13. As for `Cc1nc2[nH]c(C)c(CCC(=O)O)c(=O)n2n1`, the relative growth is 1.04. Next, `CC1=C(/C=C/C(C)=C/C=C/C(C)=C/C(=O)O)C(C)(C)CCC1`: 1.04; `CC(N)(Cc1ccc2c(c1)OCO2)C(=O)O` (centres undefined): 1.02.

In turn, `COCCNC(=O)C[C@H]1C[C@H]2c3cc(NS(C)(=O)=O)ccc3O[C@H]2[C@@H](CO)O1` returned a relative growth of 1.12.

The molecule `Cc1ccc(S(=O)(=O)NCCC(=O)N2CCOCCOCCOCC2)cc1` displayed a relative growth of 0.913. Next, `CCCNC(=O)[C@@]1(Sc2ccc(C)cc2)CC(=O)N(Cc2cc(C(F)(F)F)cc(C(F)(F)F)c2)[C@@H]1c1ccc(CO)cc1I`: 1.1; `CN1CCN(C(=O)C[C@@H]2CC[C@H]3[C@@H](COC[C@H](O)CN3C(=O)C3CCCC3)O2)CC1`: 0.905.

With `c1ccc2c(-c3cn[nH]c3)ccnc2c1`, the relative growth was determined as 0.822. Next, `CCN(CC)c1nc(C#N)nc(OC)n1`: 1.05; `O=C(C[C@H]1C=C[C@@H](NC(=O)c2cccnc2)[C@H](CO)O1)NCCN1CCCCC1`: 1.01. The molecule `[O-][NH2+][O-]` gave a relative growth of 0.873. The result for `C[C@@H]1[C@@H]([Si](C)(C)F)[C@H](CC(=O)N(CCO)Cc2ccccc2)O[C@@]12C(=O)N(c1ccccc1)c1ccccc12` reads 0.949. Next, `CO[C@@H](CN(C)S(=O)(=O)c1ccc(F)cc1)[C@@H](C)CN([C@@H](C)CO)S(=O)(=O)c1cccc(Cl)c1`: 0.742. As to `CO[C@H]1CN(C)C(=O)c2cc(NC(=O)C3CCOCC3)ccc2OC[C@@H](C)N(Cc2cccnc2)C[C@@H]1C`, the relative growth was 1.01. Take `CN1CCN(C(=O)C[C@H]2CC[C@H](NC(=O)Cc3ccccn3)[C@@H](CO)O2)CC1`: the relative growth came out at 0.951. The result for `CC1OC1P(=O)([O-])[O-].[Ca+2]` (centres undefined) reads 1.08; that for `Nc1nnc(SCC(=O)N2CCOCC2)[nH]1`, 1.12. `Cc1ccc(Nc2nc(-c3ccc(C)cc3)c(C)s2)cc1` gave a relative growth of 0.999.

Take `C[C@@H](NC(=O)C[C@@H]1CC[C@@H](NC(=O)CN2CCOCC2)[C@@H](CO)O1)c1ccccc1`: the relative growth was 1.12. The result for `C[C@H](CO)N1C[C@H](C)[C@@H](CN(C)Cc2ccc3c(c2)OCO3)Oc2ncc(C#CCN(C)C)cc2C1=O` reads 0.963; that for `CN1CCN(C(=O)C[C@H]2C=C[C@@H](NC(=O)Cc3ccccn3)[C@H](CO)O2)CC1`, 1.05. Next, `COc1ccc(N2CCCS2(=O)=O)cc1N`: 1.07.

As for `CCn1c(=O)cc(N2CCC(C)CC2)[nH]c1=O`, the relative growth came to 1.04. As to `O=C(COc1ccccc1)Nc1nnc[nH]1`, the relative growth stood at 0.943.

`CCC1(c2ccccc2)NC(=O)N(C)C1=O` (centres undefined): the relative growth was 1.25. The result for `ON/C=N\c1nonc1-c1cccnc1` reads 1.17. The result for `C[C@@H]1CN([C@@H](C)CO)S(=O)(=O)c2ccc(C#CCN(C)C)cc2O[C@@H]1CN(C)C(=O)CN(C)C` reads 0.835. In the case of `OC[C@]1(O)OC[C@@H](O)[C@H](O)[C@@H]1O`, the relative growth is 0.911.

Molecule `CC(NCCc1ccc(O)cc1)C(O)c1ccc(O)cc1.Cl` (centres undefined) showed a relative growth of 1.02. Next, `CN1CCN(C2=Nc3ccccc3Oc3ccc(Cl)cc32)CC1.O=C(O)CCC(=O)O`: 1.15. The result for `CCN(CC)CCc1nc(-c2ccccc2)no1.O=C(O)CC(O)(CC(=O)O)C(=O)O` reads 1.15; that for `N[C@@H](CCC(=O)N[C@@H](CS)C(=O)NCC(=O)O)C(=O)O`, 1.16; that for `COc1cc(C(=O)NCCCCCC(=O)O)cc(OC)c1OC`, 1.12. Molecule `CC(=O)N1C(=O)N(C(C)=O)[C@@H](O)[C@H]1O` gave a relative growth of 1.04.

In turn, `C[C@@H]1CN([C@H](C)CO)S(=O)(=O)c2ccc(-c3ccc(C(=O)N(C)C)cc3)cc2O[C@@H]1CN(C)C(=O)C1CC1` yielded a relative growth of 1.08.

`O=C1c2ccncc2C(=O)N1CO` registered a relative growth of 0.957.

In turn, `Cn1cnc(S(=O)(=O)N[C@H]2CC[C@@H](CC(=O)N3CCN(c4ccccc4)CC3)O[C@@H]2CO)c1` displayed a relative growth of 0.96. The result for `COC(=O)CCn1cc(F)c(N)nc1=O` reads 1.07. Next, `C=CC[C@@H](CC(=O)N(CCO)Cc1ccccc1)C(=O)N[C@H](COC(=O)[C@H](CC=C)CC(=O)OC(C)(C)C)Cc1c[nH]c2ccccc12`: 0.822; `Cc1ccc(C(=O)c2ccc(Oc3ccccc3)cc2)cc1`: 1.03. The result for `O=C(C[C@H]1C=C[C@H](NC(=O)c2cccnc2)[C@@H](CO)O1)NCc1ccncn1` reads 1.1.

`CSc1nc(C)cc(NC(N)=O)n1` gave a relative growth of 1.18.

Molecule `CO[C@@]1(C(=O)NN)COc2ccccc2O1` returned a relative growth of 0.911. The result for `Cc1ccc(S(=O)(=O)N(c2cccc(-n3cc(CCC(=O)NO)nn3)c2)S(=O)(=O)c2ccc(C)cc2)cc1` reads 0.812; that for `O=C(C[C@@H]1CC[C@@H]2[C@H](COC[C@H](O)CN2C(=O)c2ccc(F)cc2)O1)NCCCN1CCOCC1`, 1.02; that for `C1CCC(C(CC2CCCCN2)C2CCCCC2)CC1.O=C(O)/C=C\C(=O)O` (centres undefined), 0.246. Next, `C[C@@]1(N)CCCC[C@@H]1C(=O)O`: 0.931. The result for `O=C(C[C@H]1C=C[C@@H](NC(=O)c2ccncc2)[C@H](CO)O1)NCc1ccncn1` reads 1.22; that for `Cn1nccc1NC(=O)/C=C/C(=O)O`, 1.1. `Cc1ncc(CO)c(CO)c1O` displayed a relative growth of 0.913.

`COc1cccc(C#Cc2ccc3c(c2)O[C@H](CN(C)C(C)=O)[C@@H](C)CN([C@H](C)CO)S3(=O)=O)c1` gave a relative growth of 0.717. The result for `Cc1cccc(S(=O)(=O)N2C[C@@H](O)COC[C@H]3O[C@@H](CC(=O)N4CCN(C)CC4)CC[C@@H]32)c1` reads 0.977; that for `COc1ccc(-c2ccc3c(c2)O[C@H](CN(C)CC2CCOCC2)[C@@H](C)CN([C@H](C)CO)S3(=O)=O)cc1`, 0.906; that for `O=C1c2ccccc2C(=O)C1c1ccc(Cl)cc1`, 0.914. Next, `CN(C)CCOc1ccc(/C(=C(/CCCl)c2ccccc2)c2ccccc2)cc1.O=C(O)CC(O)(CC(=O)O)C(=O)O`: 1.05. The result for `c1cn(CCN2CCNCC2)cn1` reads 1.07. Molecule `O=C(C[C@H]1C[C@H]2c3cc(NS(=O)(=O)c4ccc(F)cc4)ccc3O[C@H]2[C@@H](CO)O1)NCc1cccnc1` had a relative growth of 1.11. In the case of `CCOC(=O)[C@H]1CNC(=S)N[C@@]1(C)O`, the relative growth is 1.09. The result for `COCC#Cc1ccc2c(c1)O[C@@H](CN(C)C(=O)Nc1ccccc1F)[C@H](C)CN([C@H](C)CO)S2(=O)=O` reads 1.03; that for `COc1ccc2nccc(Cl)c2c1`, 1.07. Molecule `N[C@H]1C[C@@H]1c1ccc(-c2cccc(O)c2)cc1` had a relative growth of 1.04. Consider `CCS(=O)(=O)NCC[C@H]1CC[C@@H](NC(=O)Cc2ccccn2)[C@H](CO)O1`, for which the relative growth stood at 0.903. Molecule `O=C(C[C@H]1CC[C@@H]2[C@H](COC[C@H](O)CN2S(=O)(=O)c2ccc(Cl)cc2)O1)NCCN1CCCCC1` returned a relative growth of 0.928. For `NCC[C@@H](Cc1ccccc1)c1ccc2c(c1)OCO2`, the relative growth came out at 0.982. The result for `CC1=CC(C)(C)N(C(=O)Nc2ccc(C)cc2)c2ccccc21` reads 1.11; that for `CC(C)C#Cc1ccc2c(c1)O[C@@H](CN(C)C(=O)c1cnccn1)[C@@H](C)CN([C@@H](C)CO)S2(=O)=O`, 0.834. `FC(F)(F)c1ccc(/C=N/c2cc(Cl)cc(Cl)c2)cc1`: the relative growth is 1.04. The result for `CC(C)C#Cc1ccc2c(c1)O[C@@H](CN(C)C(=O)c1cnccn1)[C@H](C)CN([C@@H](C)CO)S2(=O)=O` reads 0.94; that for `CCCCCCCC/C=C\CCCCCCCC(=O)[O-].[NH3+]CCO`, 1.35; that for `CCCNC(=O)N1C[C@H](O)COC[C@@H]2O[C@@H](CC(=O)N3CCOCC3)CC[C@H]21`, 0.938.

For the molecule `N[C@H](CCC(=O)O)C(=O)O`, the relative growth is 1.17. In the case of `N[C@@H]1CONC1=O`, the relative growth stood at 0.888. The result for `N[C@H](c1ccc(Cl)cc1)c1cccnc1` reads 0.948; that for `Cc1ccccc1S(=O)(=O)N1C[C@H](O)COC[C@H]2O[C@H](CC(=O)N3CCN(C)CC3)CC[C@@H]21`, 0.964. The result for `O=c1[nH][n+](-c2ccccc2)no1` reads 0.986; that for `CCNC(=O)C[C@H]1CC[C@H](NC(=O)C2CCOCC2)[C@@H](CO)O1`, 1.03; that for `COc1ccc(NC(=O)N[C@H]2CC[C@@H](CCNC(=O)CN3CCOCC3)O[C@@H]2CO)cc1`, 0.91. The result for `CN(Cc1ccccc1)C[C@H]1C[C@@H](c2ccc(CO)cc2)O[C@H](c2ccc(NC(=O)CCCCCCC(=O)NO)cc2)O1` reads 0.914; that for `OC[C@H]1O[C@H](O[C@H]2[C@H](O)[C@@H](O)[C@H](O)O[C@@H]2CO)[C@H](O)[C@@H](O)[C@@H]1O`, 1.02; that for `CC1=CC2(CO)C(=O)[C@]3(CO3)C1[C@H]1[C@]2(C)C=C(CO)C(=O)[C@]12CO2` (some centres undefined), 0.539. The molecule `C[C@@H]1CN([C@H](C)CO)S(=O)(=O)c2ccc(C#CC3CC3)cc2O[C@@H]1CN(C)Cc1cccc(F)c1` had a relative growth of 0.985.

`COc1ccc([Si](C)(C)[C@H]2[C@H](CCn3cc([C@H](O)c4ccccc4)nn3)O[C@@]3(C(=O)N(C)c4c(Br)cc(C)cc43)[C@@H]2C)cc1` yielded a relative growth of 1.16. Molecule `C[C@H]1CN([C@@H](C)CO)S(=O)(=O)c2ccc(C#Cc3ccc(F)cc3)cc2O[C@H]1CN(C)S(=O)(=O)c1cn(C)cn1` gave a relative growth of 1.03.
